Assay results taken from patent US6916845B2, “Method for prevention and treatment of male and female sexual dysfunction” (priority 1999, dated 2005).

Test system: PDE4 isolated from human liver tissue
Assay: Inhibition of cAMP specific PDE4, two-step radioisotope procedure
Format: biochemical
Experimental: PDE5 and PDE4 were isolated from human platelets and liver tissue using a Pharmacia FPLC system and Mono Q column. The cyclic nucleotide PDE5/PDE4 activities in FPLC fractions were determined using a modification of the two-step radioisotope procedure ([^3H]GMP/[^3H]AMP).

Q: For COc1ccc(Cc2nccc3cc(OC)c(OC)cc23)cc1OC [Papaverine, papaverine], which IC50 is on record?
A: 3.07 µM
